These results are taken from patent publication US20170198196A1, “METHODS FOR CONTROLLING SOURING IN ENGINEERED SYSTEMS” (The Regents of the University of California, priority 2014, published 2017).

For data set [1] the following is noted: cited from earlier work.
In data set [2] the test system is marine enrichment cultures. As to the kind of experiment: Inhibition of sulfide production (Cline assay) in marine enrichment cultures. The class given is cell-based.
The test system of data set [3] is Desulfovibrio alaskensis G20. Particulars: sulfite reducing G20, 36 h.
In data set [4] the test system is marine enrichment cultures.
For data set [5] the following is noted: cited from earlier work. The source holds these as a separate data set.
A further data set deals with Azospira suillum PS. As to the kind of experiment: Growth of Azospira suillum PS with nitrate or perchlorate as electron acceptor in presence of MFP. The note with it: read-out: IC50 against growth of A. suillum PS.
In data set [6] the test system is Desulfovibrio alaskensis G20 tn5::rex mutant. As to the kind of experiment: Inhibition of Desulfovibrio alaskensis G20 tn5::rex mutant versus wild-type. Particulars: tn5::rex overproduces central sulfate reduction pathway.
The test system of data set [7] is Desulfovibrio alaskensis G20. Briefly: Growth inhibition of Desulfovibrio alaskensis G20 on lactate/sulfate media (OD600).
Data set [8] has as its system Desulfovibrio alaskensis G20 tn5::dde_2102. Briefly: Growth of tn5::dde_2102 (crcB, fluoride efflux pump) mutant with MFP or fluoride. Particulars: 30 mM F^- or 1 mM MFP.
Data set [9] relates to sulfidogenic, mixed-species microbial communities. Briefly: Inhibition of sulfate reduction in continuous sediment bioreactors by MFP dosing.
Data set [10] concerns Desulfovibrio alaskensis G20. The note with it: read-out: IC50 of sulfate reduction; defined media, sulfate 30 mM.

Read-outs that look alike come from different tables or passages of the source.

Consider calcium monofluorophosphate, for which, in [1], the solubility constant is given as 30 mM.

Turning to monofluorophosphate, in data set [2] (growth versus sulfide production, marine enrichment), the “fold higher concentration needed for impact on general growth of the microbial community” value was found to be 70 fold. The selectivity index (SI = growth IC50/sulfide IC50) in data set [2] (marine enrichment cultures, 48 h) amounted to 53. Also, the “selectivity and potency as inhibitor of sulfidogenesis versus growth, in words” value in data set [2] (marine enrichment cultures, SI>2 classified as selective) is reported as “selective inhibitors”. Also, in data set [2] (ratio of seawater growth IC50 to sulfide production IC50), the “Growth/Sulfide Ratio” value is given as 66.52. In addition, the IC50 in data set [2] (read-out: IC50 Seawater Sulfide Production, seawater adjusted to contain 2 g L^-1 yeast extract) was 836 µM; in [2] (read-out: IC50 against sulfidogenesis (95% confidence interval), marine enrichment cultures, 48 h) it was 1900 µM; in data set [2] (read-out: IC50 value against undefined sulfidogenic microbial community, marine sediment enrichment with yeast extract and sulfate) it was 800 µM; in [4] (read-out: IC50 Seawater Growth, seawater adjusted to contain 2 g L^-1 yeast extract), 55600 µM; in [4] (read-out: growth IC50, marine enrichment cultures, 48 h), > 100000 µM; in the data set with Azospira suillum PS (nitrate-reducing conditions), > 50000 µM. Moreover, the half-maximal inhibitory concentration (IC50) with Azospira suillum PS (perchlorate-reducing conditions) was > 50000 µM; in data set [7] (read-out: IC50 against growth of Desulfovibrio alaskensis G20 (95% confidence interval), wild-type, 48 h), 1200 µM; in data set [7] (read-out: IC50 against growth of Desulfovibrio alaskensis G20, lactate and sulfate media) it was 1220 µM; in [10], 100 µM. Further, in data set [3], the “potency against sulfite grown cells relative to sulfate grown cells, in words” value is given as “less inhibitory to sulfite grown cells than sulfate grown cells”. Also, the stability result in data set [5] (extremes of alkaline and acidic pH) was “unstable”; in [5] (neutral pH) it was “stable for months”. In addition, the “response of Rex mutants relative to wild-type G20, in words” value in data set [6] was “sensitive”. In addition, the “concentration inhibiting growth of Desulfovibrio alaskensis G20” value in [7] (FIG. 3A and 3B) is given as “below 1 mM”. The “growth of tn5::dde_2102 strain relative to wild-type G20, in words” value in [8] is “sensitive”. Moreover, the “inhibition of sulfate reduction in bioreactors” value in data set [9] (MFP dosing at 2 mM, second dosing period) was “did not result in inhibition of sulfate reduction”; in data set [9] (MFP dosing at 20 mM, third dosing period, R7-9), “rapid inhibition of sulfate reduction”.

The term IC50 denotes the concentration at which inhibition is half-maximal.
